Measurements reported in ChEMBL document CHEMBL3227947, “Quantitative structure-activity relationship of 5-(X-benzyl)-2,4-diaminopyrimidines inhibiting bovine liver dihydrofolate reductase” (J Med Chem, 1979).

target: T1, Dihydrofolate reductase (Bos taurus) (UniProt P00376)
T1 sequence (whole entry): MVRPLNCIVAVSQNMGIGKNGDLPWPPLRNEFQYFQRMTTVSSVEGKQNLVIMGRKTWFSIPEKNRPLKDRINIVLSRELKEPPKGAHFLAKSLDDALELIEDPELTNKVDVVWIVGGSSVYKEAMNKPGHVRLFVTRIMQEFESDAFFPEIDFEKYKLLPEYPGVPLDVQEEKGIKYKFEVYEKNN

| SMILES | log(1/I50) |
| --- | --- |
| CN(C)c1ccc(Cc2cnc(N)nc2N)cc1 | 4.76 |
| Nc1ncc(Cc2cccc(Br)c2)c(N)n1 | 5.54 |
| Nc1ncc(Cc2cccc(Cl)c2)c(N)n1 | 5.47 |

Results, then the molecule that gave them:

| log(1/I50) | SMILES |
| --- | --- |
| 4.92 | COc1ccc(Cc2cnc(N)nc2N)cc1 |
| 5.02 | Nc1ncc(Cc2ccc([N+](=O)[O-])cc2)c(N)n1 |
| 5.18 | Nc1ncc(Cc2ccc(F)cc2)c(N)n1 |
| 5.17 | Nc1ncc(Cc2ccc(Br)cc2)c(N)n1 |
